In patent US11111233B2, “Amino pyrimidine compound for inhibiting protein tyrosine kinase activity” (Shenzhen TargetRx, Inc., priority 2016, dated 2021):

How the values were obtained:
[1] = target: WT EGFR (Homo sapiens (Human), UniProt P00533); assay: Kinase inhibition assay (HTRF), WT EGFR; type: biochemical; conditions: HTRF Kinase TK kit, 10 min pre-incubation, 20 min reaction
[2] = target: EGFR [L858R/T790M] (Homo sapiens (Human), UniProt P00533, L858R/T790M); assay: Kinase inhibition assay (HTRF), EGFR [L858R/T790M]; type: biochemical; conditions: HTRF Kinase TK kit, 10 min pre-incubation, 20 min reaction

Substance: N-(2-(4-ethoxypiperidin)-1-yl)-5-((4-(4-fluoro-1-isopropyl-2-methyl-1H-benzo[d]imidazole-6-yl)pyrimidin-2-yl)amino)-4-methoxyphenyl)acrylamide [Example 14]
- IC50 [1]: > 100 nM
- IC50 [2]: 1 to 50 nM
